# Values quoted from earlier work as cited in patent US11578009B2, “Urea-based blend composition and method for the manufacture thereof” (YARA INTERNATIONAL ASA, priority 2018, dated 2023).
# Settings: WO2017/168288; urea plus phosphate fertilizer; cited from earlier work
smiles,measurement,value
"O=S(=O)([O-])[O-].[Mg+2] [MgSO4, magnesium sulphate]",Concentration of cation source at which stabilizing the urease inhibitor is effective,≥ 1.25%
